One experiment concerns the target RARα (Homo sapiens, UniProt P10276). In words: HEK-293 RARα luciferase reporter gene agonist assay. The following applies: for α/γ ratio: ratio of RARα EC50 to RARγ EC50; for EC50: read-out: RAR α EC50, HEK293 cells transfected with pBIND-RARα and pG5 Luc, 24 h treatment, EC50 > maximum test concentration when maximum activation rate is less than 50% of retinoic acid Max well. (In a reporter assay the amount or activity of a reporter protein is the signal.)

Chains of the proteins cited; added tags and fusions are not shown.
UniProt P10276, whole entry: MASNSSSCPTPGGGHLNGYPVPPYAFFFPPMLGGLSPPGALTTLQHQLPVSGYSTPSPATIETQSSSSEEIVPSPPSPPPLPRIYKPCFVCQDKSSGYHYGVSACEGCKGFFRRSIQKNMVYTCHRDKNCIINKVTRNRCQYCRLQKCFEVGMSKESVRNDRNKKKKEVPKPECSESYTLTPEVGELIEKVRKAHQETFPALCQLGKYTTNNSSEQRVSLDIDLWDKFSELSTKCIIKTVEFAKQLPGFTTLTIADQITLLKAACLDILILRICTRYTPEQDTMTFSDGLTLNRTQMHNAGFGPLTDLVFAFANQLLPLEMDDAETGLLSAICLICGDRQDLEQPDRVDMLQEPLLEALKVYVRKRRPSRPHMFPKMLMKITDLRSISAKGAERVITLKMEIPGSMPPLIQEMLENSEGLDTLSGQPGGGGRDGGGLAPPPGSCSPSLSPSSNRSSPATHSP
UniProt P10826, whole entry: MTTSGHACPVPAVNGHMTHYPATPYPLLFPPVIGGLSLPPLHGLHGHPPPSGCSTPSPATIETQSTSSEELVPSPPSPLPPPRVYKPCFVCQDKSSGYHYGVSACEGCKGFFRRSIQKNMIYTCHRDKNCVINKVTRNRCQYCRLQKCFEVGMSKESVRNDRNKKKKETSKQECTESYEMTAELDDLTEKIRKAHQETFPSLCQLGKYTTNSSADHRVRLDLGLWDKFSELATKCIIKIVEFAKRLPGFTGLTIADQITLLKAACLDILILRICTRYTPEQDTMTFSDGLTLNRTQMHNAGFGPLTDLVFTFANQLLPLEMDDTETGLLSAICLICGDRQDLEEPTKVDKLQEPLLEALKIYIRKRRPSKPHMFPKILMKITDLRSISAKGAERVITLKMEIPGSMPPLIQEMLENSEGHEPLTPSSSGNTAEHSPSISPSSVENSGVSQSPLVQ
UniProt P13631, whole entry: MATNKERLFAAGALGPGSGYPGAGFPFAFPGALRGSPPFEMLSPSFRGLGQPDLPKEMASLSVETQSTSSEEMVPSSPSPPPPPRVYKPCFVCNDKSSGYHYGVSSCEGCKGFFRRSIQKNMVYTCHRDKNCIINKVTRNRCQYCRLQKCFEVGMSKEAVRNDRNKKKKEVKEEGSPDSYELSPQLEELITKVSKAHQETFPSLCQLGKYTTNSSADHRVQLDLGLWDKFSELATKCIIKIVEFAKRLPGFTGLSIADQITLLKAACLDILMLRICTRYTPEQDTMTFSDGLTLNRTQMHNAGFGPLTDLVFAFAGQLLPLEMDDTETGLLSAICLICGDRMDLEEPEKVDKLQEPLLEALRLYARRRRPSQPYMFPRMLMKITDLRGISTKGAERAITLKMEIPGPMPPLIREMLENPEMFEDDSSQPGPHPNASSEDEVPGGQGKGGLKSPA

In a further experiment the target is RARβ (Homo sapiens, UniProt P10826). The experiment is described as follows: HEK-293 RARβ luciferase reporter gene agonist assay. The following applies: for β/γ ratio: ratio of RARβ EC50 to RARγ EC50; for EC50: read-out: RAR β EC50, HEK293 cells transfected with pBIND-RARβ and pG5 Luc, 24 h treatment, EC50 > maximum test concentration when maximum activation rate is less than 50% of retinoic acid Max well.

The next experiment addresses RARγ (Homo sapiens, UniProt P13631). The experiment is described as follows: HEK-293 RARγ luciferase reporter gene agonist assay. As to conditions: read-out: RAR γ EC50; HEK293 cells transfected with pBIND-RARγ and pG5 Luc, 24 h treatment.

Usually EC50 stands for the concentration at which the effect is half-maximal. `CC1(C)C[C@@H]2CCCN2c2ccc(-c3cc(-c4ccc(C(=O)O)cc4)ccc3OCCO)cc21`: on RARα, the α/γ ratio is more than 398.9 and the EC50 was more than 6 µM. Besides, at RARβ, the β/γ ratio is reported as more than 398.9 and the EC50 is more than 6 µM. Besides, at RARγ, the half-maximal effective concentration (EC50) came to 0.015 µM.
In the case of `CCN1CCC(C)(C)c2cc(-c3cc(-c4ccc(C(=O)O)cc4)ccc3OCCO)ccc21`, the α/γ ratio at RARα is given as more than 2643.2. In addition, the EC50 on RARα was more than 6 µM; on RARβ, more than 6 µM; at RARγ, 0.00227 µM. On RARβ, the β/γ ratio is listed as more than 2643.2.
As to `CN1CCC(C)(C)c2cc(-c3cc(-c4ccc(C(=O)O)cc4)ccc3OCCO)ccc21`, at RARα, the α/γ ratio is listed as more than 16216.2 and the half-maximal effective concentration (EC50) was more than 6 µM. At RARβ, the β/γ ratio is recorded as more than 16216.2 and the EC50 is more than 6 µM. Besides, on RARγ, the half-maximal effective concentration (EC50) came out at 0.00037 µM.
For the compound `CC1(C)C[C@H]2CCCN2c2ccc(-c3cc(-c4ccc(C(=O)O)cc4)ccc3OCCO)cc21`, on RARα, the α/γ ratio is listed as more than 333.3 and the EC50 was more than 6 µM. Moreover, at RARβ, the β/γ ratio was more than 333.3 and the EC50 is more than 6 µM. Further, the EC50 on RARγ stood at 0.018 µM.
Consider `C[C@H]1CC(C)(C)c2cc(-c3cc(-c4ccc(C(=O)O)cc4)ccc3OCCO)ccc2N1C`, for which the α/γ ratio at RARα is given as more than 1244.8. Further, the EC50 at RARα was more than 6 µM; on RARβ, more than 6 µM; on RARγ it was 0.00482 µM. Moreover, the β/γ ratio at RARβ is more than 1244.8.

The values are drawn from patent publication EP4840849A1, “BIPHENYL COMPOUND, PREPARATION METHOD THEREFOR, AND INTERMEDIATE, PHARMACEUTICAL COMPOSITION AND USE THEREOF” (dated 2026).
